Test results from patent US20240360179A1, “STAPLED PEPTIDES AND METHODS THEREOF” (FOG PHARMACEUTICALS, INC., priority 2021, published 2024).

Amino acid sequences for entries named in this document (tags omitted).
UniProt P35222, whole entry: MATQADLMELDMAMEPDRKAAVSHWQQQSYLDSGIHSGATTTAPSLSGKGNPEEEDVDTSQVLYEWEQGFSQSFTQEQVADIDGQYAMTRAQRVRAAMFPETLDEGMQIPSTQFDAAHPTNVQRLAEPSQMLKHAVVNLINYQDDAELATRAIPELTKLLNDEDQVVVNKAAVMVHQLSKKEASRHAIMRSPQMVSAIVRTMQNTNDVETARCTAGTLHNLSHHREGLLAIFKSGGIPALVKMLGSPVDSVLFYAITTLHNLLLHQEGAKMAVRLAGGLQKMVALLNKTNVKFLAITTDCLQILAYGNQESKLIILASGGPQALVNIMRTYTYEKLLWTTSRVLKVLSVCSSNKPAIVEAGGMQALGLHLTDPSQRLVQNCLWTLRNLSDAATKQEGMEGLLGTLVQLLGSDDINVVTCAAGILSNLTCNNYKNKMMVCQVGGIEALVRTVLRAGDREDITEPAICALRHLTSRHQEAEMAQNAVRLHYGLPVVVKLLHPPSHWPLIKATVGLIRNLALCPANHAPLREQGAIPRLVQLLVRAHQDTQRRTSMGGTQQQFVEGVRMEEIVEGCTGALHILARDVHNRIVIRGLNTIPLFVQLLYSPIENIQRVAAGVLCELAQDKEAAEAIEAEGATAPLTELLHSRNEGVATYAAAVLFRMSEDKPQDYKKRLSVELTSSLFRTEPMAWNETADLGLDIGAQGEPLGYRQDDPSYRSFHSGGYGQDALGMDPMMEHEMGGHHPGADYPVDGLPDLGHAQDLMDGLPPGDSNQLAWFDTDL

biological target: T1, full-length B-Catenin (Uniprot ID P35222) (Homo sapiens, UniProt P35222); format: binding; conditions: competition fluorescence polarization; read-out: beta-Catenin FP IC50
T1 construct: 10 nM full-length B-Catenin (Uniprot ID P35222)

Substance	IC50
Ac-PL3-Asp-Npg-B5-Asp-3COOHF-Aib-Ala-Phe-[m5Pyr]hCys-PyrS2-3Thi-BztA-Pen-Ala-NH2 [I-1470]	50 to 200 nM
Ac-PL3-Asp-Npg-B5-Asp-3COOHF-Aib-Ala-Phe-[m50Meb]Cys-PyrS2-3Thi-BztA-Cys-Ala-NH2 [I-1453]	< 50 nM
Ac-PL3-Asp-Npg-B5-Asp-3COOHF-Aib-Ala-Phe-[mPyr]Cys-PyrS2-3Thi-BztA-aMeC-Ala-NH2 [I-1387]	50 to 200 nM
Ac-PL3-Asp-Npg-B5-Asp-3COOHF-Aib-Ala-Phe-[mPyr]Cys-PyrS2-3Thi-BztA-hCys-Ala-NH2 [I-1461]	< 50 nM
Ac-PL3-Asp-Npg-B5-Asp-3COOHF-Aib-Ala-Phe-[mPyr]hCys-PyrS2-3Thi-BztA-Pen-Ala-NH2 [I-1469]	< 50 nM
Ac-PL3-Asp-Npg-B5-Asp-3COOHF-Aib-Ala-Phe-[mPyr]hCys-PyrS2-3Thi-BztA-aMeC-Ala-NH2 [I-1425]	50 to 200 nM
Ac-PL3-Asp-Npg-B5-Asp-3COOHF-Aib-Ala-Phe-[mXyl]Cys-PyrS2-3Thi-BztA-aMeC-Ala-NH2 [I-1386]	50 to 200 nM
Ac-PL3-Asp-Npg-B5-Asp-3COOHF-Aib-Ala-Phe-[mXyl]hCys-PyrS2-3Thi-BztA-hCys-Ala-NH2 [I-759]	50 to 200 nM
Ac-PL3-Asp-Npg-B5-Asp-3COOHF-Aib-Ala-Phe-[pXyl]Cys-PyrS2-3Thi-BztA-hCys-Ala-NH2 [I-758]	50 to 200 nM
Ac-PL3-Asp-Npg-B5-Asp-3COOHF-Aib-Ala-Phe-[pXyl]hCys-PyrS2-3Thi-BztA-Cys-Ala-NH2 [I-757]	< 50 nM
Ac-PL3-Asp-Npg-B5-Asp-3COOHF-Aib-Ala-Phe-[pXyl]hCys-PyrS2-3Thi-BztA-hCys-Ala-NH2 [I-760]	50 to 200 nM
Ac-PL3-Asp-Npg-B5-Asp-3COOHF-Aib-Ala-Phe-dDab*3-PyrS2-3Thi-BztA-GlnR*3-Leu-Ser-NH2 [I-791]	< 50 nM
Ac-PL3-Asp-Npg-B5-Asp-3COOHF-Aib-Ala-Phe-dOrn*3-PyrS2-3Thi-BztA-AsnR*3-Leu-Ser-NH2 [I-797]	< 50 nM
Ac-PL3-Asp-Npg-B5-Asp-3COOHF-Aib-Ala-RbMeXylA-Lys*3-PyrS2-3Thi-BztA-GlnR*3-Ala-NH2 [I-601]	> 1000 nM
Ac-PL3-Asp-Npg-B5-Asp-3COOHF-Aib-Ala-RbMeXylDA-Lys*3-PyrS2-3Thi-BztA-GlnR*3-Ala-NH2 [I-603]	> 1000 nM
Ac-PL3-Asp-Npg-B5-Asp-3COOHF-Aib-Ala-RbiPrDF-Lys*3-PyrS2-3Thi-BztA-GlnR*3-Ala-NH2 [I-599]	> 1000 nM
Ac-PL3-Asp-Npg-B5-Asp-3COOHF-Aib-Ala-RbiPrF-Lys*3-PyrS2-3Thi-BztA-GlnR*3-Ala-NH2 [I-595]	> 1000 nM
Ac-PL3-Asp-Npg-B5-Asp-3COOHF-Aib-Ala-SbiPrF-Lys*3-PyrS2-3Thi-BztA-GlnR*3-Ala-NH2 [I-597]	> 1000 nM
Ac-PL3-Asp-Npg-B5-Asp-3COOHF-Aib-Cba-Phe-Lys*3-PyrS2-3Thi-BztA-GlnR*3-Ala-NH2 [I-532]	< 50 nM
Ac-PL3-Asp-Npg-B5-Asp-3COOHF-Aib-nLeu-Phe-Lys*3-PyrS2-3Thi-BztA-GlnR*3-Ala-NH2 [I-528]	< 50 nM
Ac-PL3-Asp-Npg-B5-Asp-3COOHF-Ala-Ala-Phe-Lys*3-PyrS2-2F3MeF-34ClF-GlnR*3-Leu-NH2 [I-828]	50 to 200 nM
Ac-PL3-Asp-Npg-B5-Asp-3COOHF-Ala-Ala-Phe-Lys*3-PyrS2-2F3MeF-34ClF-GlnR*3-Leu-Ser-NH2 [I-829]	50 to 200 nM

Substance	IC50
Ac-PL3-Asp-Npg-B5-Asp-3COOHF-Ala-Ala-Phe-Lys*3-PyrS2-2F3MeF-34ClF-GlnR*3-Val-NH2 [I-824]	< 50 nM
Ac-PL3-Asp-Npg-B5-Asp-3COOHF-Ala-Ala-Phe-Lys*3-PyrS2-2F3MeF-BztA-GlnR*3-Leu-NH2 [I-105]	< 50 nM
Ac-PL3-Asp-Npg-B5-Asp-3COOHF-Ala-Ala-Phe-Lys*3-PyrS2-Phe-BztA-GlnR*3-Ala-NH2 [I-1244]	< 50 nM
Ac-PL3-Asp-Npg-B5-Asp-3COOHF-Ala-Ala-Phe-Lys*3-PyrS2-Phe-BztA-GlnR*3-NH2 [I-1243]	< 50 nM
Ac-PL3-Asp-Npg-B5-Asp-3COOHF-Ala-Ala-Phe-Lys*3-SPip2-2F3MeF-BztA-GlnR*3-Ala-NH2 [I-777]	50 to 200 nM
Ac-PL3-Asp-Npg-B5-Asp-3COOHF-Ala-Ala-Phe-Lys*3-SPip2-3Thi-BztA-GlnR*3-Ala-NH2 [I-780]	< 50 nM
Ac-PL3-Asp-Npg-B5-Asp-3COOHF-Ala-Ala-Phe-Lys*3-SPip3-2F3MeF-BztA-GlnR*3-Ala-NH2 [I-778]	< 50 nM
Ac-PL3-Asp-Npg-B5-Asp-3COOHF-Ala-Ala-Phe-Lys*3-SPip3-2F3MeF-BztA-GlnR*3-Ala-NH2 [I-779]	50 to 200 nM
Ac-PL3-Asp-Npg-B5-Asp-3COOHF-Ala-Ala-Phe-TriAzLys*3-PyrS2-2F3MeF-BztA-sAla*3-NH2 [I-22]	< 50 nM
Ac-PL3-Asp-Npg-B5-Asp-3COOHF-Ala-Ala-Phe-TriAzLys*3-PyrS2-3Thi-BztA-sAla*3-NH2 [I-20]	< 50 nM
Ac-PL3-Asp-Npg-B5-Asp-3COOHF-Asn-Ala-Phe-Lys*3-PyrS2-3Thi-BztA-GlnR*3-Ala-NH2 [I-394]	< 50 nM
Ac-PL3-Asp-Npg-B5-Asp-3COOHF-CyLeu-Ser-Phe-Lys*3-PyrS2-3Thi-BztA-GlnR*3-Ala-NH2 [I-1011]	< 50 nM
Ac-PL3-Asp-Npg-B5-Asp-3COOHF-Npg-Ala-Phe-Lys*3-PyrS2-2F3MeF-BztA-GlnR*3-Ala-NH2 [I-100]	< 50 nM
Ac-PL3-Asp-Npg-B5-Asp-3COOHF-[Ac]PyrRa-Ala-Phe-Lys*3-PyrS2-3Thi-BztA-GlnR*3-Ala-NH2 [I-1034]	< 50 nM
Ac-PL3-Asp-Npg-B5-Asp-3COOHF-[Ac]PyrSa-Ala-Phe-Lys*3-PyrS2-3Thi-BztA-GlnR*3-Ala-NH2 [I-1031]	50 to 200 nM
Ac-PL3-Asp-Npg-B5-Asp-3COOHF-[Me2ethylenediamine]GlnR-Ala-Phe-Leu-PyrS2-2F3MeF-BztA-GlnR-NH2 [I-702]	50 to 200 nM
Ac-PL3-Asp-Npg-B5-Asp-3COOHF-[Phc]PyrRa-Ala-Phe-Lys*3-PyrS2-3Thi-BztA-GlnR*3-Ala-NH2 [I-1035]	< 50 nM
Ac-PL3-Asp-Npg-B5-Asp-3COOHF-[Phc]PyrSa-Ala-Phe-Lys*3-PyrS2-3Thi-BztA-GlnR*3-Ala-NH2 [I-1032]	50 to 200 nM
Ac-PL3-Asp-Npg-B5-Asp-3COOHF-[diaminopropane]GlnR-Ala-Phe-Leu-PyrS2-2F3MeF-BztA-GlnR-NH2 [I-703]	50 to 200 nM
Ac-PL3-Asp-Npg-B5-Asp-3COOHF-[ethylenediamine]GlnR-Ala-Phe-Leu-PyrS2-2F3MeF-BztA-GlnR-NH2 [I-701]	50 to 200 nM
Ac-PL3-Asp-Npg-B5-Asp-3COOHF-[isovaleryl]Acp-Ala-Phe-Lys*3-PyrS2-3Thi-BztA-GlnR*3-Ala-NH2 [I-1030]	< 50 nM
Ac-PL3-Asp-Npg-B5-Asp-3COOHF-[isovaleryl]PyrRa-Ala-Phe-Lys*3-PyrS2-3Thi-BztA-GlnR*3-Ala-NH2 [I-1036]	< 50 nM

Substance	IC50
Ac-PL3-Asp-Npg-B5-Asp-3COOHF-[isovaleryl]PyrSa-Ala-Phe-Lys*3-PyrS2-3Thi-BztA-GlnR*3-Ala-NH2 [I-1033]	50 to 200 nM
Ac-PL3-Asp-Npg-B5-Asp-4BOH2F-Aib-Ala-Phe-Lys*3-PyrS2-3Thi-BztA-GlnR*3-Ala-NH2 [I-1189]	50 to 200 nM
Ac-PL3-Asp-Npg-B5-Asp-Asp-Ala-Ala-Phe-TriAzLys*3-PyrS2-3Thi-BztA-sAla*3-NH2 [I-18]	< 50 nM
Ac-PL3-Asp-Npg-B5-Asp-SbMeAsp-Aib-Ala-Phe-Lys*3-PyrS2-Phe-34ClF-GlnR*3-NH2 [I-1060]	< 50 nM
Ac-PL3-Asp-Npg-B5-Asp-TfeGA-Aib-Ala-Phe-Lys*3-PyrS2-2F3MeF-34ClF-GlnR*3-Leu-Ser-NH2 [I-893]	50 to 200 nM
Ac-PL3-Asp-Npg-B5-Asp-TfeGA-Aib-Ala-Phe-Lys*3-PyrS2-2F3MeF-34ClF-GlnR*3-NH2 [I-890]	< 50 nM
Ac-PL3-Asp-Npg-B5-Asp-TfeGA-Aib-Ala-Phe-Lys*3-PyrS2-2F3MeF-BztA-GlnR*3-Leu-Ser-NH2 [I-888]	50 to 200 nM
Ac-PL3-Asp-Npg-B5-Asp-TfeGA-Aib-Ala-Phe-Lys*3-PyrS2-2F3MeF-BztA-GlnR*3-NH2 [I-887]	< 50 nM
Ac-PL3-Asp-Npg-B5-Asp-TfeGA-Aib-Ala-Phe-Lys*3-PyrS2-3Thi-34ClF-GlnR*3-Ala-NH2 [I-882]	< 50 nM
Ac-PL3-Asp-Npg-B5-Asp-TfeGA-Aib-Ala-Phe-Lys*3-PyrS2-3Thi-34ClF-GlnR*3-Leu-Ser-NH2 [I-883]	< 50 nM
Ac-PL3-Asp-Npg-B5-Asp-TfeGA-Aib-Ala-Phe-Lys*3-PyrS2-3Thi-34ClF-GlnR*3-NH2 [I-881]	< 50 nM
Ac-PL3-Asp-Npg-B5-Asp-TfeGA-Aib-Ala-Phe-Lys*3-PyrS2-3Thi-BztA-GlnR*3-Ala-NH2 [I-876]	< 50 nM
Ac-PL3-Asp-Npg-B5-Asp-TfeGA-Aib-Ala-Phe-Lys*3-PyrS2-3Thi-BztA-GlnR*3-Leu-Ser-NH2 [I-877]	< 50 nM
Ac-PL3-Asp-Npg-B5-Asp-TfeGA-Aib-Ala-Phe-Lys*3-PyrS2-3Thi-BztA-GlnR*3-NH2 [I-875]	< 50 nM
Ac-PL3-Asp-Npg-B5-Asp-TfeGA-Aib-Ala-Phe-Lys*3-PyrS2-Phe-34ClF-GlnR*3-Ala-NH2 [I-885]	< 50 nM
Ac-PL3-Asp-Npg-B5-Asp-TfeGA-Aib-Ala-Phe-Lys*3-PyrS2-Phe-34ClF-GlnR*3-Leu-Ser-NH2 [I-886]	< 50 nM
Ac-PL3-Asp-Npg-B5-Asp-TfeGA-Aib-Ala-Phe-Lys*3-PyrS2-Phe-34ClF-GlnR*3-NH2 [I-884]	< 50 nM
Ac-PL3-Asp-Npg-B5-Asp-TfeGA-Aib-Ala-Phe-Lys*3-PyrS2-Phe-BztA-GlnR*3-Ala-NH2 [I-879]	< 50 nM
Ac-PL3-Asp-Npg-B5-Asp-TfeGA-Aib-Ala-Phe-Lys*3-PyrS2-Phe-BztA-GlnR*3-Leu-Ser-NH2 [I-880]	< 50 nM
Ac-PL3-Asp-Npg-B5-Asp-TfeGA-Aib-Ala-Phe-Lys*3-PyrS2-Phe-BztA-GlnR*3-NH2 [I-878]	< 50 nM

same assay, conditions: read-out: beta-catenin TCF4 competition FP assay IC50

Substance	IC50
Ac-PL3-Asp-Npg-B5-Asp-3COOHF-Aib-Ala-Phe-[m50Meb]Cys-PyrS2-3Thi-BztA-Cys-Ala-NH2 [I-1453]	35 nM
